In the experiment the test system is Wnt/β-Catenin signaling pathway. The experiment can be described thus: Wnt signaling luciferase (TOPflash) reporter gene assay. The class given is cell-based. The note with it: mean of three independent experiments, read-out: IC50 (nM) to inhibit the Wnt signaling activity. An excerpt: A dual-luciferase gene reporter assay was used to test inhibitory activities of new compounds on Wnt signaling. […] Therefore, the effects of new compounds on AMPK was examined. […]
A general note: Reporter assays use an easily measured gene product as a stand-in for the process of interest.

One may read the IC50 as the concentration that gives 50% inhibition.

For `Oc1nc(-c2ccc(C(F)(F)F)cc2)nc2c1CSCC2` [XAV939, reference compound], the IC50 was determined as 166 nM.

The record behind these values is patent US20240279201A1, “DUAL WNT SIGNALING PATHWAY INHIBITORS AND AMPK ACTIVATORS FOR TREATMENTS OF DISEASE” (priority 2021, published 2024).
